From ChEMBL document CHEMBL2029320 (J Med Chem, 2012) come the findings set out here.

The target of test [1] is T1, Relaxin-3 receptor 1 (Homo sapiens, UniProt Q9NSD7).
T1 sequence (Q9NSD7 whole entry): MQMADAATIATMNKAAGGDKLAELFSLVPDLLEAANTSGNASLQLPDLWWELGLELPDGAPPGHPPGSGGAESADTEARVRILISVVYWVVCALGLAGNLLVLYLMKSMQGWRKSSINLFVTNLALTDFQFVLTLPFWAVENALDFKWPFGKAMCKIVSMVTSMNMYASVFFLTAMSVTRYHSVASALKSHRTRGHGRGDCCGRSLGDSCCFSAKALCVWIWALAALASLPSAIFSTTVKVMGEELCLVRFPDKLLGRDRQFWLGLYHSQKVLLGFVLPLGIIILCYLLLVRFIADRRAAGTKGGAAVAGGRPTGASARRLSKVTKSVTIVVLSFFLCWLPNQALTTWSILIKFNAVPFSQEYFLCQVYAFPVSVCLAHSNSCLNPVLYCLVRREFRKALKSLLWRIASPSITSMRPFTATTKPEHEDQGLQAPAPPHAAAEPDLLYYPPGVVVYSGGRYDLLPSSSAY
The test can be described thus: Displacement of europium-labelled H3 relaxin-B chain/INSL-5 chain from RXFP3 expressed in CHO-K1 cells. The test is classed as cell-based.

Test [2] addresses T1, Relaxin-3 receptor 1. The test can be described thus: Agonist activity at RXFP3 expressed in CHO-K1 cells assessed as inhibition of forskolin-induced cAMP accumulation after 6 hrs by beta galactosidase reporter gene assay. It is filed as functional, cell-based.

Usually Ki stands for a measure of affinity in units of concentration, obtained from inhibition or displacement. Low readings indicate higher affinity, high ones lower affinity. Broadly, the IC50 is the concentration that inhibits the measured activity by half. `CC[C@H](C)[C@@H]1NC(=O)[C@H](Cc2ccccc2)NC(=O)[C@H](CCC(=O)O)NC(=O)[C@H](CCCN=C(N)N)NC(=O)CNC(=O)[C@@H](N)CSSC[C@H](N)C(=O)N[C@@H](CCCCN)C(=O)N[C@@H](Cc2c[nH]c3ccccc23)C(=O)NCC(=O)N[C@@H](C)C(=O)N[C@@H](CO)C(=O)N[C@@H](CCCCN)C(=O)N[C@@H](CO)C(=O)N[C@@H](CCC(=O)O)C(=O)N[C@@H]([C@@H](C)CC)C(=O)N[C@@H](CO)C(=O)N[C@@H](CO)C(=O)N[C@@H](CC(C)C)C(=O)N[C@H](C(=O)O)CSSC[C@@H](C(=O)NCC(=O)NCC(=O)N[C@@H](CO)C(=O)N[C@@H](CCCN=C(N)N)C(=O)N[C@@H](Cc2c[nH]c3ccccc23)C(=O)O)NC(=O)[C@H]([C@@H](C)O)NC(=O)[C@H](Cc2ccccc2)NC(=O)[C@H]([C@@H](C)CC)NC(=O)[C@H](C(C)C)NC(=O)[C@H](C)NC(=O)[C@H](CCCN=C(N)N)NC1=O` gave a Ki on Relaxin-3 receptor 1 [1] of 110 nM. The IC50 on Relaxin-3 receptor 1 [2] is 12.6 nM.
